We go through 1 compound from ChEMBL document CHEMBL6096694, “Repurposing of Agrochemicals as ATTRv Amyloidosis Inhibitors” (J Med Chem, 2025).

As a reminder, the Kd is the concentration at which binding is half-saturated. In general, Ki refers to the dissociation constant of the complex between target and ligand, obtained from inhibition or displacement.

Assay [1] addresses T1, Transthyretin (Homo sapiens, UniProt P02766). The assay can be described thus: Binding affinity to wildtype TTR (unknown origin) assessed as dissociation constant by ITC analysis.
Assay [2] concerns the target T1, Transthyretin. As to conditions: dose 60.0 µM.
Assay [3] addresses Transthyretin (Homo sapiens, UniProt P02766, V50M). The assay can be described thus: Inhibition of acid-mediated TTR V30M mutant (unknown origin) aggregation preincubated for 30 mins followed by sodium acetate buffer at pH 5.2 addition and measured after 7 days by absorbance based turbidity assay.

Regarding `Oc1cc(Cl)ccc1Oc1ccc(Cl)cc1Cl` [TRICLOSAN], the Kd in assay [1] was 0.484 µM. Moreover, in assay [2], the deltaG was -8.61 kcal/mol. Also, the affinity in assay [3], expressed as Ki, was 18 µM.
